The results in this text go back to US9056836B2, “Benzomorphan analogs and the use thereof” (Purdue Pharma L.P., priority 2013, dated 2015).

Chains of the proteins cited; added tags and fusions are not shown.
UniProt P35372, whole entry: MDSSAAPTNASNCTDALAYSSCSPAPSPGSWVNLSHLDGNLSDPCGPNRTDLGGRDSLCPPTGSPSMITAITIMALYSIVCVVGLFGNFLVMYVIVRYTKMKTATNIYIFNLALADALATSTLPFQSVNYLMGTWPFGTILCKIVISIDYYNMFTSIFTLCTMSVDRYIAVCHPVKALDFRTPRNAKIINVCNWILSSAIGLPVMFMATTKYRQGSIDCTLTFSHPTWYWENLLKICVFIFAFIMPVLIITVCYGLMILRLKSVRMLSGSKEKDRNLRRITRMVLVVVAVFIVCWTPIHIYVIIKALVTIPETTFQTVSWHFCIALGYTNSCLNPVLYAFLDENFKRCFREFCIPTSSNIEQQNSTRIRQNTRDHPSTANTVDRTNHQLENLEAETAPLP
UniProt P41145, whole entry: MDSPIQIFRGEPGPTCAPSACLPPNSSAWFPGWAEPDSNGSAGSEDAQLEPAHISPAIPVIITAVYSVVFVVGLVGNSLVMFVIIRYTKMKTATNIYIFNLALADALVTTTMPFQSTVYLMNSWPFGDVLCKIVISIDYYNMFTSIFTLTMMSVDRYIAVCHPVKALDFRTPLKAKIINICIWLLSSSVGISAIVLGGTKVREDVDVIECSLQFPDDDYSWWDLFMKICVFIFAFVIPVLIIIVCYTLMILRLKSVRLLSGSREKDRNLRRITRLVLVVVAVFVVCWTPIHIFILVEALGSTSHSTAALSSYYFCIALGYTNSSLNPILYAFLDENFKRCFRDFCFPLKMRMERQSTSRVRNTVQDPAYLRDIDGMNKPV

pEC50: −log10 of the molar value.

The target in assay [1] is T1, μ-opioid receptor (Homo sapiens (Human), UniProt P35372). Description: μ-opioid receptor [35S]GTPγS functional assay. It counts as biochemical. The note with it: tested form: TFA salt. On the procedure:
μ-Opioid Receptor Functional Assay Procedures: [^35S]GTPγS functional assays were conducted using freshly thawed μ-receptor membranes (Perkin Elmer, Shelton, Conn.). Assay reactions were prepared by sequentially adding the following reagents to binding buffer (100 mM NaCl, 10 mM MgCl2, 20 mM HEPES, pH 7.4) on ice (final concentrations indicated): membrane protein (0.026 mg/mL), saponin ([…]), GDP ([…]) and [^35S]GTPγS (0.20 nM; Perkin Elmer, Shelton, Conn.). The prepared membrane solution (190 μl/well) was transferred to 96-shallow well polypropylene plates containing 10 μl of 20× concentrated stock solutions of the agonist [D-Ala^2, N-methyl-Phe^4 Gly-ol^5]-enkephalin (DAMGO) prepared in dimethyl sulfoxide (DMSO). Plates were incubated for 30 min at about 25° C. with shaking. Reactions were terminated by rapid filtration onto 96-well Unifilter GF/B filter plates (Perkin Elmer, Shelton, Conn.) using a 96-well tissue harvester (Perkin Elmer, Shelton, Conn.) followed by three filtration washes with 200 μl of ice-cold wash buffer (10 mM NaH2PO4, 10 mM Na2HPO4, pH 7.4). Filter plates were subsequently dried at 50° C. for 2-3 hr, BetaScint scintillation cocktail (Perkin Elmer, Shelton, Conn.) was added (50 μl/well) and plates were counted using a Packard Top-Count for […]. Data were analyzed using the sigmoidal dose-response curve fitting functions in GraphPad PRISM™; v. […]

In assay [2] the target is T2, κ opioid receptor (Homo sapiens (Human), UniProt P41145). As to the kind of experiment: κ-opioid receptor radioligand dose-displacement binding assay ([3H]-U69,593). To be noted: read-out: Ki (nM) Opioid Receptor κ; binding affinity, recombinant κ opioid receptor expressed in HEK 293 cells; tested form: TFA salt. On the procedure: κ-opioid Receptor Binding Assay Procedures: Membranes from recombinant HEK-293 cells expressing the human κ opioid receptor (cloned in house) were prepared by lysing cells in ice cold hypotonic buffer (2.5 mM MgCl2, 50 mM HEPES, pH 7.4) (10 mL/10 cm dish) followed by homogenization with a tissue grinder/Teflon pestle. Membranes were collected by centrifugation at 30,000× g for 15 min at 4° C. and pellets were resuspended in hypotonic buffer to a final concentration of 1-3 mg/mL. Protein concentrations were determined using the BioRad protein assay reagent with bovine serum albumen as standard. Aliquots of κ receptor membranes were stored at −80° C.
Radioligand dose displacement assays used 0.4 nM [^3]-U69,593 (GE Healthcare, Piscataway, N.J.; 40 Ci/mmole) with 15 μg membrane protein (recombinant κ opioid receptor expressed in HEK 293 cells; in-house prep) in a final volume of 200 μl binding buffer (5% DMSO, 50 mM Trizma base, pH 7.4). Non-specific binding was determined in the presence of 10 μM unlabeled naloxone or U69,593. All reactions were performed in 96-well polypropylene plates for 1 hr at a temperature of about 25° C. […] Fifty μl/well scintillation cocktail (Perkin Elmer, Shelton, Conn.) was added and plates were counted in a Packard Top-Count for 1 min/well. Data were analyzed using the sigmoidal dose-response curve fitting functions in GraphPad PRISM™ v. […]

Assay [3] addresses T2, κ opioid receptor. Description: κ-opioid receptor [35S]GTPγS functional assay. The note with it: tested form: TFA salt. The protocol:
κ-Opioid Receptor Functional Assay Procedures: Functional [^35S]GTPγS binding assays were conducted as follows, k opioid receptor membrane solution was prepared by sequentially adding final concentrations of 0.026 μg/μl κ membrane protein (in-house), 10 μg/mL saponin, 3 μM GDP and 0.20 [^35S]GTPγS to binding buffer (100 mM NaCl, 10 mM MgCl2, 20 mM HEPES, pH 7.4) on ice. The prepared membrane solution (190 μl/well) was transferred to 96-shallow well polypropylene plates containing 10 μl of 20× concentrated stock solutions of agonist prepared in DMSO. Plates were incubated for 30 min at a temperature of about 25° C. with shaking. Reactions were terminated by rapid filtration onto 96-well Unifilter GF/B filter plates (Perkin Elmer, Shelton, Conn.) using a 96-well tissue harvester (Packard) and followed by three filtration washes with 200 μl ice-cold binding buffer (10 mM NaH2PO4, 10 mM Na2HPO4, pH 7.4). Filter plates were subsequently dried at 50° C. for 2-3 hours. Fifty μl/well scintillation cocktail (Perkin Elmer, Shelton, Conn.) was added and plates were counted in a Packard Top-Count for 1 min/well. Data were analyzed using the sigmoidal dose-response curve fitting functions in GraphPad PRISM™ v. 3.0, or an in-house function for non-linear, sigmoidal dose-response curve-fitting. […]
On the technique in general: GTPγS resists hydrolysis and so accumulates on activated G proteins.

The target in assay [4] is T1, μ-opioid receptor. As to the kind of experiment: μ-opioid receptor radioligand dose-displacement binding assay ([3H]-diprenorphine). To be noted: read-out: Ki (nM) Opioid Receptor μ; binding affinity, μ-opioid receptor membranes; tested form: TFA salt. On the procedure:
μ-opioid Receptor Binding Assay Procedures: Radioligand dose-displacement binding assays for μ-opioid receptors used 0.3 nM [^3H]-diprenorphine (Perkin Elmer, Shelton, Conn.), with […] membrane protein/well in a final volume of 500 μl binding buffer (10 mM MgCl2, 1 mM EDTA, 5% DMSO, 50 mM HEPES, pH 7.4). Reactions were carried out in the absence or presence of increasing concentrations of unlabeled naloxone. All reactions were conducted in 96-deep well polypropylene plates for 2 hr at room temperature. Binding reactions were terminated by rapid filtration onto 96-well Unifilter GF/C filter plates (Perkin Elmer, Shelton, Conn.), presoaked in 0.5% polyethylenimine using a 96-well tissue harvester (Perkin Elmer, Shelton, Conn.) followed by performing three filtration washes with 500 μl of ice-cold binding buffer. Filter plates were subsequently dried at 50° C. for 2-3 hours. BetaScint scintillation cocktail (Perkin Elmer, Shelton, Conn.) was added (50 μl/well), and plates were counted using a Packard Top-Count for 1 min/well. The data were analyzed using the one-site competition curve fitting functions in GraphPad PRISM™ v. 3.0 or higher (San Diego. Calif.), or an in-house function for one-site competition curve-fitting.

Take `NC(=O)CCC[C@]12CCN(CC3CC3)[C@H](Cc3ccc(O)cc31)/C2=C\C(=O)O`: the “GTPγS μ Emax” value at μ-opioid receptor [1] (maximal effect relative to DAMGO) was 56.00 ± 5.20%. The pEC50 is 6.53 on μ-opioid receptor [1] (read-out: GTPγS μ EC50, μ GTP EC50) and 6.04 on κ opioid receptor [3] (read-out: GTPγS κ EC50, κ GTP EC50). Also, the Ki came out at 33.1 nM at κ opioid receptor [2] and 621 nM on μ-opioid receptor [4]. Moreover, at κ opioid receptor [3] (maximal effect relative to U69,593), the “GTPγS κ Emax” value is given as 86.67 ± 2.03%.

The term pEC50 denotes −log10 of the EC50, conventionally taken in molar units. The term Ki denotes a measure of affinity in units of concentration, obtained from inhibition or displacement.
